Laboratory results taken from ChEMBL document CHEMBL4428076 (J Med Chem, 2016).

System: Mus musculus
Experiment: Antinociceptive activity in CD-1 mouse assessed as increase in reaction time at 5 mg/kg, sc administered on day 6 after KOR1-exon2 antisense oligodeoxynucleotide injection on day 1, 3 and 5 by radiant heat tail flick assay

CN(C(=O)Cc1ccc(Cl)c(Cl)c1)C1CCCCC1N1CCCC1 (stereo unspecified)
Activity: inactive

The source made the active and inactive calls. The rule behind the calls is not given here.
